From ChEMBL document CHEMBL4130393, “An update on small molecules targeting CXCR4 as starting points for the development of anti-cancer therapeutics” (Eur J Med Chem, 2017)

The chains behind the UniProt entries cited, without tags or fusion partners.
UniProt P61073, whole entry: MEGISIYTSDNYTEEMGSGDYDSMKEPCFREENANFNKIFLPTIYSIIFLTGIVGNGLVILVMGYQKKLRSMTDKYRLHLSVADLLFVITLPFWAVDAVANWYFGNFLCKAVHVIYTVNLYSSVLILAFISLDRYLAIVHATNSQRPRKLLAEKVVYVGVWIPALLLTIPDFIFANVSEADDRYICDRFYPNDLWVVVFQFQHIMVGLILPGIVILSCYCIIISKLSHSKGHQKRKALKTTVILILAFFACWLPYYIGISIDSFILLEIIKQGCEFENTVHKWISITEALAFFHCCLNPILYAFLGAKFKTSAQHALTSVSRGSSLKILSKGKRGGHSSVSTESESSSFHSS

Molecular target: C-X-C chemokine receptor type 4 (Homo sapiens, UniProt P61073)
Assay: Antagonist activity at CXCR4 (unknown origin)
Format: functional

SMILES: NCCCCN(Cc1nc2ccccc2[nH]1)C1CCCc2cccnc21 (stereo unspecified)
- IC50: 0.013 µM
